# scFv variants of Ab-95 (light chain) against a SARS-CoV-2 spike peptide

The measurements come from Engelhart et al. 2022 (doi:10.1038/s41597-022-01779-4) through the FLAb antibody collection.

Target: peptide PDVDLGDISGINAS, taken from heptad repeat 2 (HR2) of SARS-CoV-2 spike.

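The parent was found by panning a naive human phage display library on the peptide. The library (AAYL52) carries one to three amino acid substitutions per variant, with no insertions or deletions. Affinity was read by AlphaSeq, a pooled yeast mating assay with surface-displayed partners. The frequency of each diploid, read from paired DNA barcodes, reflects how well the two displayed proteins bind. A regression on co-assayed BCL2-family reference pairs converts the normalised counts of each replicate to an apparent Kd. Mating was done three times.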

Parent: Ab-95, a human scFv built as VH, a (GGGGS)3 linker, VL. Only the CDRs of the light chain vary.
VH: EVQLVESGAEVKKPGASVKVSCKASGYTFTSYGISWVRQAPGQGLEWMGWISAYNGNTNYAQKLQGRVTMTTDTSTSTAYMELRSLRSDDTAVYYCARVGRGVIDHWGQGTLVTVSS
VL: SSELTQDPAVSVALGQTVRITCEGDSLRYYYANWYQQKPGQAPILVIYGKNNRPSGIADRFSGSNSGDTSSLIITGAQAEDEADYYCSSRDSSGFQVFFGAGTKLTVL

The whole VL of each variant is written out.
Numbers give log10(Kd / nM), so 0 is 1 nM and 3 is 1 µM. Smaller is tighter.
The mean shown is taken over the replicates in which the pair was detected.
A pair that was not seen in that replicate is written "nd"; this usually means weak binding, but a binder can also be missed.

| VL | replicates, log10 nM | mean, log10 nM | empty controls |
|---|---|---|---|
| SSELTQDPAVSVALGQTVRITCEGDSLRYYYANWYQQKPGQAPILVIYGKNNRNSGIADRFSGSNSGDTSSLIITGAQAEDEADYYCSSRDSSGFQCRFGAGTKLTVL | nd / 3.06 / 4.25 | 3.66 | 2 of 9 (3.42) |
| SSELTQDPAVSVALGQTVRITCEGDLLRYHYANWYQQKPGQAPILVIYGKNNRPSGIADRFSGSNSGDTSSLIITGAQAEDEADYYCISRDSSGFQVFFGAGTKLTVL | nd / 3.79 / nd | 3.79 | 2 of 9 (4.25) |
| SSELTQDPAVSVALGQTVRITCEGDRLRYYYANWYQQKPGQAPILVIYGKNNRPPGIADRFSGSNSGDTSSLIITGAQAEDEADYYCSSRSSSGFQVFFGAGTKLTVL | 4.36 / 3.79 / 3.51 | 3.89 | 3 of 9 (3.72) |
| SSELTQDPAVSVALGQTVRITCEGDSLRYYYANWYQQKPGQAPILVIYGKNNRPSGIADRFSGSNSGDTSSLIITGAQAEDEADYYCSHRDSSGPQVAFGAGTKLTVL | nd / 2.64 / 2.53 | 2.59 | 1 of 9 (3.01) |
| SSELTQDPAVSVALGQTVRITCEGDSLRYYYANWYQQKPGQAPILVIYGKNNRPVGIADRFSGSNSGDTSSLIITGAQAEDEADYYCHSRDSSGFQVFFGAGTKLTVL | nd / nd / nd | nd | 1 of 9 (4.68) |
| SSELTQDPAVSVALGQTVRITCESDSRRYYYANWYQQKPGQAPILVIYGKNNRPSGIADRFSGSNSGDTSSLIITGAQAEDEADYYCSSRDSSGFQVFFGAGTKLTVL | 4.16 / nd / nd | 4.16 | 2 of 9 (3.92) |
| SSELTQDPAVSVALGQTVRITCEGDKLRYYYANWYQQKPGQAPILVIYGKNNRPSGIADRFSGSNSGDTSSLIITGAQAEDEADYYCSSRDSSGFIVFFGAGTKLTVL | 3.44 / nd / nd | 3.44 | 1 of 9 (3.17) |
| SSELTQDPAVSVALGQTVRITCEGDNLRYYYANWYQQKPGQAPILVIYGKNNRPSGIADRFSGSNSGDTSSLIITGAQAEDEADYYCSSRDSSEFQVFFGAGTKLTVL | nd / nd / nd | nd | 1 of 9 (4.52) |
| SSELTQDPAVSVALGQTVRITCEGDSLVEYYANWYQQKPGQAPILVIYGKNNRPSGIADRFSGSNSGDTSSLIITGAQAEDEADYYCSSRDSKGFQVFFGAGTKLTVL | 4.23 / 3.85 / nd | 4.04 | 4 of 9 (3.75) |
| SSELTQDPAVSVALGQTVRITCYGDSLRYYYANWYQQKPGQAPILVIYGVNNRPSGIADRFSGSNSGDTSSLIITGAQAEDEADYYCSFRDSSGFQVFFGAGTKLTVL | 4.07 / nd / 3.76 | 3.91 | 3 of 9 (3.95) |
| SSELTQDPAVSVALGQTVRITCTHDSLRYYYANWYQQKPGQAPILVIYTKNNRPSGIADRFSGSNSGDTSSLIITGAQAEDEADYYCSSRDSSGFQVFFGAGTKLTVL | 4.97 / 3.80 / nd | 4.39 | 4 of 9 (3.57) |
| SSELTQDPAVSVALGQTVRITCWGDSLRYYYANWYQQKPGQAPILVIYQKNNRPSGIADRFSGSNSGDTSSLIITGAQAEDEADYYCSSWDSSGFQVFFGAGTKLTVL | 4.34 / 5.52 / 3.38 | 4.41 | 3 of 9 (3.51) |
| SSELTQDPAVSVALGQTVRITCEGDSLRYYYANWYQQKPGQAPILVIYGKNNRPMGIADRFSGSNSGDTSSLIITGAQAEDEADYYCSNIDSSGFQVFFGAGTKLTVL | 2.66 / 2.75 / 2.83 | 2.75 | 1 of 9 (4.12) |
| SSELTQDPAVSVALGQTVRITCEGDSLRYYYANWYQQKPGQAPILVIYGKNNRVSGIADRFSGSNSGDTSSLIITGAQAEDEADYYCSIYDSSGFQVFFGAGTKLTVL | 2.37 / 4.36 / 2.56 | 3.10 | 1 of 9 (4.70) |
| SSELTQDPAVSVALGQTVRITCEGDSLRYFYARWYQQKPGQAPILVIYGKNNRPSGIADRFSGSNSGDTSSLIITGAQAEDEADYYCSSRDSSSFQVFFGAGTKLTVL | 4.40 / 4.26 / nd | 4.33 | 1 of 9 (3.64) |
| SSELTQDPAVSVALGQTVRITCYGDSLRYWYANWYQQKPGQAPILVIYGKNNRPSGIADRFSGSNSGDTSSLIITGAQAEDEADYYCSSRDSSGFRVFFGAGTKLTVL | 3.26 / nd / nd | 3.26 | 1 of 9 (5.58) |
| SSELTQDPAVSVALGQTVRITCEGDSLPYYYANWYQQKPGQAPILVIYGKNNRPSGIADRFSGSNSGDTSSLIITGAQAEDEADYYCSSRDSMGFQFFFGAGTKLTVL | nd / 5.47 / 4.13 | 4.80 | 1 of 9 (3.79) |
| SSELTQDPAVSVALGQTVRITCEGDSLRMYYANWYQQKPGQAPILVIYGKNNRPSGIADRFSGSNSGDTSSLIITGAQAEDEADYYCSSPDSSGFQQFFGAGTKLTVL | 2.30 / 3.24 / 2.12 | 2.55 | 3 of 9 (3.92) |
| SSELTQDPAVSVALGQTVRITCEGDSLRYYYANWYQQKPGQAPILVIYGKVNRPYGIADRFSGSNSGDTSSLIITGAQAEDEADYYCSSRDSSGMQVFFGAGTKLTVL | 3.77 / 3.24 / 3.72 | 3.58 | 1 of 9 (3.57) |
| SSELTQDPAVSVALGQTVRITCEGDSLRYVYANWYQQKPGQAPILVIYDKNNRPSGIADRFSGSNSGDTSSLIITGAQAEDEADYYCSSRMSSGFQVFFGAGTKLTVL | 3.58 / nd / nd | 3.58 | 0 of 9 |
| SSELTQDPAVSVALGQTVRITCEGDSLRYYYANWYQQKPGQAPILVIYHKNNRPSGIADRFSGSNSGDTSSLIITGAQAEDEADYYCSSRDSSGGQVGFGAGTKLTVL | nd / nd / nd | nd | 1 of 9 (3.95) |

The first 3 entries again:

{"VL": "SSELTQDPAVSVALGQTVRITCEGDSLRYYYANWYQQKPGQAPILVIYGKNNRNSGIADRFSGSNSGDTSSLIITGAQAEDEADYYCSSRDSSGFQCRFGAGTKLTVL", "replicates, log10 nM": "nd / 3.06 / 4.25", "mean, log10 nM": "3.66", "empty controls": "2 of 9 (3.42)"}
{"VL": "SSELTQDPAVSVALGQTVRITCEGDLLRYHYANWYQQKPGQAPILVIYGKNNRPSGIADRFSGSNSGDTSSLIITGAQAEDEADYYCISRDSSGFQVFFGAGTKLTVL", "replicates, log10 nM": "nd / 3.79 / nd", "mean, log10 nM": "3.79", "empty controls": "2 of 9 (4.25)"}
{"VL": "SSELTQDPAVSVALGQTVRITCEGDRLRYYYANWYQQKPGQAPILVIYGKNNRPPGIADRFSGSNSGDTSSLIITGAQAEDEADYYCSSRSSSGFQVFFGAGTKLTVL", "replicates, log10 nM": "4.36 / 3.79 / 3.51", "mean, log10 nM": "3.89", "empty controls": "3 of 9 (3.72)"}

For reference, the parent read 2.31 as the reference entry and 2.25 as a member of this library.
Background: pairings of library AAYL52 with three empty control strains gave a value in 28% of cases (median 3.91, 5th percentile 2.90). Values in that range, when seen in few replicates, are hard to tell from nonspecific mating. Also given: how often the same scFv was detected with the empty control strains, with their mean in brackets.